Assay results as given in patent US9238647B2, “P2X3 receptor antagonists for treatment of pain” (Merck Sharp & Dohme Corp., priority 2009, dated 2016).

Sequences of proteins named here, by UniProt entry; tags and fusion partners are left off.
UniProt P56373, whole entry: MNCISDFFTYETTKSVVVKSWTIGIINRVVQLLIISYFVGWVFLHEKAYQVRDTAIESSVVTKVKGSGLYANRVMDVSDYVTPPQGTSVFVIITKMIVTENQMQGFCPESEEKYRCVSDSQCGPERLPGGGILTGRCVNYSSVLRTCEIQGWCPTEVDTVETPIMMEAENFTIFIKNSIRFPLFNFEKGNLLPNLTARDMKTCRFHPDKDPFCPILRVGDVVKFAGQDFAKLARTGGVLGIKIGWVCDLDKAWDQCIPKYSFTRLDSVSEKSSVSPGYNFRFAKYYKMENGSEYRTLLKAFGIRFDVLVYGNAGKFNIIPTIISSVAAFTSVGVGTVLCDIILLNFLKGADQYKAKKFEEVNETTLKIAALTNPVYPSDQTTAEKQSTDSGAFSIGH

Biological target: human P2X3 (Homo sapiens, UniProt P56373)
Assay: Intracellular Calcium Measurement to Assess Antagonist Affinity (FLIPR, Fluo-4, α,β-meATP agonist)
Settings: cells expressing human P2X3; agonist α,β-meATP at EC50; antagonist added 10 min before agonist
Source text: Generation of a Human P2X3 and P2X2/3 Stable Cell Line—Human P2X3 receptor cDNA (Accession number NM_002559) was subcloned as a 5′XhoI and 3′HindIII fragment into the expression vector pcDNA5/FRT (Invitrogen). Human P2X2 receptor cDNA (Accession number NM_174873) was subcloned as a 5′EcoRI and 3′NotI fragment into the expression vector pIRESneo2 (BD Biosciences Clontech). The human P2X3 expression construct was transfected using Lipofectamine 2000 (Invitrogen) into Flp-in-293 cells (Invitrogen) according to the manufacturer's directions. Cells positive for flp-mediated recombination of […] P2X3 were selected using 150 μg/ml hygromycin. […]
Intracellular Calcium Measurement to Assess Antagonist Affinity—A fluorescent imaging plate reader (FLIPR; Molecular Devices) was used to monitor intracellular calcium levels using the calcium-chelating dye Fluo-4 (Molecular Probes). The excitation and emission wavelengths used to monitor fluorescence were 488 nm and 530 nm, respectively. […] During this period fluorescence data is collected at 3 sec intervals followed by 10 sec intervals. […] Following agonist addition fluorescence was measured at 5 sec intervals and analyzed based on the increase in peak relative fluorescence units (RFU) compared to the basal fluorescence. […]

IC50: 6.4 nM
Structure (SMILES): Cc1ccc(-c2cc(C(=O)N[C@H](C)c3ccc(C(F)(F)F)[n+]([O-])c3)cn3c(-c4ccccn4)nnc23)cc1
